From article PMC6933782 (ACS Omega, 2019)

By UniProt entry, the sequences of proteins in these tests, tags left out.
UniProt P30989, whole entry: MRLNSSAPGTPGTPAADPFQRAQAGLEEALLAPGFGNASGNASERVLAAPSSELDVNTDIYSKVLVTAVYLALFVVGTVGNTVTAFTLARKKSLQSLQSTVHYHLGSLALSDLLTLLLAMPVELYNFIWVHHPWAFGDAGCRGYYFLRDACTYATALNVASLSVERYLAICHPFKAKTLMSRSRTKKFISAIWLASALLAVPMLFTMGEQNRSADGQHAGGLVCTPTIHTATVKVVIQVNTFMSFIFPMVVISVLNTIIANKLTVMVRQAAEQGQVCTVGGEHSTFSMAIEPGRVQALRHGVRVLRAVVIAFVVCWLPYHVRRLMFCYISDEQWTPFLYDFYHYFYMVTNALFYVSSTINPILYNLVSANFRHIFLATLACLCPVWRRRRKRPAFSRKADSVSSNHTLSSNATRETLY

Key:
normal BALB/c mice = assay: PET imaging / biodistribution in normal BALB/c mice; assay type: in vivo, BALB/c mouse
[1] = target: neurotensin receptor 1 (human (endogenous in HT-29)) (UniProt P30989); assay: radioligand binding

Row | IC50 [1] | Substance | biodistribution profile (normal BALB/c mice; 5 MBq i.v.) | uptake in PET (normal BALB/c mice; 5 MBq i.v.) | liver metabolism (normal BALB/c mice; 24 h postinjection) | retention of uptake in the heart and arteries (normal BALB/c mice; up to stated time postinjection)
1 | – | ^64Cu-labeled HSA 10: human serum albumin azo coupled with ^64Cu-labeled NOTA-diazonium salt 5 | characteristic for a blood pool marker | uptake in the heart and arteries | liver metabolism 24 h postinjection | up to 2 h
2 | 0.04 nM | natGa-labeled neurotensin NT(8–13) (peptide) | – | – | – | –
3 | 0.03 nM | neurotensin NT(8–13) (peptide) | – | – | – | –
